In patent US20250109381A1, “COMPOSITION FOR CULTRING NK CELLS, COMPRISING ALLOFERON, AND METHOD FOR CULTURING NK CELLS USING SAME” (NK MEDICS INC., priority 2022, published 2025):

System: NK cells
Experiment: IFN-gamma secretion of NK cells (Human IFN-y ELISA)
Assay type: cell-based
Details: IL-2 10 mg/L in typical medium without alloferon, 48 hours
Procedure: IFN-r is an indicator of the activity of NK cells, and it is considered as the secretion amount is higher, the cytotoxicity is higher and the differentiation ability increases.
To confirm this, the isolated NK cells were washed and then treated with 10 mg/L of IL-2 in a typical medium, further treated with alloferons 1 to 4 (0.1 to 100 ng/ml, or 100 mg/L) depending on the test group, and placed in a 24-well plate (1×10^5 cells/well) and reacted in an environment of 5% CO2 and 37° C. for 48 hours. IFN-y secreted from NK cells was measured in the culture medium in which the cells were cultured, using a Human IFN-y ELISA kit (BD Biosciences, San Diego, CA, USA). 100 μl of capture antibody diluted in coating buffer was added to each well of a 96-well plate for ELISA, then sealed and left overnight at 4° C. It was washed three times using wash buffer, and all remaining buffer was removed. 200 μl of assay diluent was added to each well and reacted at room temperature for 1 hour for blocking. It was washed again three times using wash buffer, and all remaining buffer was removed. 100 μl of each prepared IFN-y standard and culture supernatants were added, the plate was sealed, and the reaction was performed at room temperature for 2 hours. […] 50 μl of Stop solution was added to each well, and the absorbance was measured at 450 nm within 30 minutes.

Substance: IL-2: recombinant human interleukin 2 (IL-2)
- IFN-r, Table 6: 1.02 µg/L
